In patent US20110076258A1, “METHODS OF MODULATING T CELL- DEPENDENT IMMUNE RESPONSES” (Converge Biotech Inc., priority 2008, published 2011):

Test system: naive CD4 T cells
Experiment: T cell proliferation by CFSE dilution, plate-bound CD3 and CD28 mAbs
Format: cell-based, mouse
Conditions: IL-2 at 250 U/ml; PMA
From the text: FIG. 6: Pharmacological inhibition of P2 receptors impairs T cell proliferation as well as IL-2 secretion and implements anergy. • a) FACS profiles showing dilution of CFSE fluorescence in sorted naïve CD4^+ cells stimulated with plate-bound CD3 and CD28 (see methods section) in the absence (upper panels) or presence (lower panels) of oATP (see Example 4). […] The number of cells with detectable marker (proliferating cells) in timed acquisitions is indicated. • b) A representative experiment showing the IL-2 concentrations measured by ELISA in culture supernatants of naïve CD4^+ cells stimulated with plate-bound CD3 and CD28 antibodies for 48 h, and in the presence of oATP or PPADS. Gray bars represent IL-2 concentrations obtained when PMA was added to the sample. • c) Quantification of Egr2 and Egr3 transcripts by real time RT-PCR at 2 and 16 h after stimulation of sorted naïve CD4^+ cells with plate-bound CD3 and CD28 antibodies either in the absence or presence of oATP (see Example 4). *, P<0.05 • d) Cytosolic Ca^2+ profiles following CD3 stimulation of OVA-specific T cell clones pre-incubated for 16 h with ionomycin, CD3 and CD28 antibodies alone or in combination with oATP or oATP and PMA (see Example 4).
Therefore, we inferred that T cell stimulation in the presence of oATP might inhibit IL-2 expression. […]

IL-2: interleukin-2 cytokine added at 250 U/ml
oATP inhibition of T cell proliferation on addition of second agent: partially rescued
